The Kinase Knowledgebase extract (Sharma et al. 2016)

Target: CDK2 (UniProt P24941)
Assay: Enzyme Assay

O=C(Cc1ccc(N2CCCCC2)cc1)Nc1n[nH]c2ccc(N3CCCS3(=O)=O)cc12 was tested, and the IC50 was < 50 nM.
